IC50 data for 24 compounds are collected here from patent US9725465B2, “Biaryl acetamide compounds and methods of use thereof” (Ambit Biosciences Corporation, priority 2013, dated 2017).

In experiment [1] the test system is Ba/F3 cells expressing FLT3-ITD.
Experiment [2] has as its system Ba/F3 cells expressing FLT3-ITD-D835V.

pIC50: −log10 of the molar value.

As for `COc1cc2nc(-c3ccc(CC(=O)Nc4cc(C5(C(F)(F)F)CC5)on4)c(F)c3)cnc2cc1OCCN1CC2CC1CO2` (stereo not drawn) [Example 224, 2-[2-fluoro-4-[7-methoxy-6-[2-(2-oxa-5-azabicyclo[2.2.1]heptan-5-yl)ethoxy]quinoxalin-2-yl]phenyl]-N-[5-[1-(trifluoromethyl)cyclo-propyl]isoxazol-3-yl]acetamide], the negative-log IC50 (pIC50) in experiment [1] and in experiment [2] was above 8.00 throughout.
Turning to `COc1cc2ncc(-c3cc(F)c(CC(=O)Nc4cc(C(C)(C)C(F)(F)F)on4)c(F)c3)nc2cc1OC` [Example 225, 2-[4-(6,7-dimethoxyquinoxalin-2-yl)-2,6-difluoro-phenyl]-N-[5-(2,2,2-trifluoro-1,1-dimethyl-ethyl)isoxazol-3-yl]acetamide], the pIC50 is above 8.00 in experiment [1] and 7.70 to 8.00 in experiment [2].
Consider `COc1cc2ncc(-c3cc(F)c(CC(=O)Nc4cc(C5(C(F)(F)F)CC5)on4)c(F)c3)nc2cc1OC` [Example 226, 2-[4-(6,7-dimethoxyquinoxalin-2-yl)-2,6-difluoro-phenyl]-N-[5-[1-(trifluoromethyl)cyclo-propyl]isoxazol-3-yl]acetamide], for which the pIC50 is above 8.00 in experiment [1] and 7.30 to 7.70 in experiment [2].
On the same counts, the results for `COc1cc2ncc(-c3ccc(CC(=O)Nc4cc(C5(C(F)(F)F)CC5)on4)c(F)c3)nc2cc1OCCCN` [Example 227, 2-[4-[7-(3-aminopropoxy)-6-methoxy-quinoxalin-2-yl]-2-fluoro-phenyl]-N-[5-[1-(trifluoromethyl)cyclo-propyl]isoxazol-3-yl]acetamide] are above 8.00 and 7.70 to 8.00.
On to `COc1cc2nc(-c3ccc(CC(=O)Nc4cc(C5(C(F)(F)F)CC5)nn4C)c(F)c3)cnc2cc1OCCN1CCOCC1` [Example 228, 2-[2-fluoro-4-[7-methoxy-6-(2-morpholino-ethoxy)quinoxalin-2-yl]phenyl]-N-[2-methyl-5-[1-(trifluoromethyl)cyclo-propyl]pyrazol-3-yl]acetamide], for which the pIC50 in experiment [1] and in experiment [2] was above 8.00 in each case.
Take `COc1cc2ncc(-c3cnc(CC(=O)Nc4cc(C(C)(C)C(F)(F)F)on4)c(F)c3)nc2cc1OC` [Example 229, 2-[5-(6,7-dimethoxyquinoxalin-2-yl)-3-fluoro-2-pyridyl]-N-[5-(2,2,2-trifluoro-1,1-dimethyl-ethyl)isoxazol-3-yl]acetamide]: the pIC50 in experiment [1] and in experiment [2] was above 8.00 throughout.
Take `COc1cc2nc(-c3ccc(CC(=O)Nc4cc(C5(C(F)(F)F)CC5)n[nH]4)c(F)c3)cnc2cc1OCCN1CCOCC1` [Example 230, 2-[2-fluoro-4-[7-methoxy-6-(2-morpholino-ethoxy)quinoxalin-2-yl]phenyl]-N-[3-[1-(trifluoro-methyl)cyclopropyl]-1H-pyrazol-5-yl]acetamide]: the pIC50 in experiment [1] and in experiment [2] was above 8.00 each time.
For the compound `COc1cc2nc(-c3ccc(CC(=O)Nc4cc(C5(C(F)(F)F)CC5)on4)cc3)cnc2cc1OCCN1CCOCC1` [Example 231, 2-[4-[7-methoxy-6-(2-morpholinoethoxy)quinoxalin-2-yl]phenyl]-N-[5-[1-(trifluoromethyl)cyclo-propyl]isoxazol-3-yl]acetamide], the pIC50 in experiment [1] and in experiment [2] was above 8.00 in each case.
Consider `COc1cc2cc(-c3ccc(CC(=O)Nc4cc(C5(C(F)(F)F)CC5)on4)c(F)c3)cnc2cc1OCCN1CCOCC1` [Example 232, 2-[2-fluoro-4-[6-methoxy-7-(2-morpholinoethoxy)-3-quinolyl]phenyl]-N-[5-[1-(trifluoromethyl)cyclo-propyl]isoxazol-3-yl]acetamide], for which the pIC50 in experiment [1] and in experiment [2] was above 8.00 each time.
As for `COc1cc2nc(-c3ccc(CC(=O)Nc4cc(C5(C(F)(F)F)CC5)on4)c(F)c3)cnc2cc1C(C)(O)CO` (stereo not drawn) [Example 233, 2-[4-[6-(1,2-dihydroxy-1-methyl-ethyl)-7-methoxy-quinoxalin-2-yl]-2-fluoro-phenyl]-N-[5-[1-(trifluoro-methyl)cyclopropyl]isoxazol-3-yl]acetamide], the pIC50 was above 8.00 in experiment [1] and below 7.30 in experiment [2].
The matching figures for `COc1cc2ncc(-c3ccc(CC(=O)Nc4cc(C5(C(F)(F)F)CC5)on4)c(F)c3)nc2cc1OCCN1CCOCC1` [Example 234, 2-[2-fluoro-4-[6-methoxy-7-(2-morpholino-ethoxy)quinoxalin-2-yl]phenyl]-N-[5-[1-(trifluoro-methyl)cyclopropyl]isoxazol-3-yl]acetamide]: above 8.00 and above 8.00.
Take `COc1cc2nc(-c3ccc(CC(=O)Nc4cc(C(C)(C)C(F)(F)F)n[nH]4)c(F)c3)cnc2cc1OCCN1CCOCC1` [Example 235, 2-[2-fluoro-4-[7-methoxy-6-(2-morpholino-ethoxy)quinoxalin-2-yl]phenyl]-N-[3-(2,2,2-trifluoro-1,1-dimethyl-ethyl)-1H-pyrazol-5-yl]acetamide]: the pIC50 in experiment [1] and in experiment [2] was above 8.00 throughout.
Consider `COc1cc2ncc(-c3ccc(CC(=O)Nc4cc(C5(C(F)(F)F)CC5)on4)c(F)c3)nc2cc1OCC(O)CO` (stereo not drawn) [Example 236, 2-[4-[7-(2,3-dihydroxypropoxy)-6-methoxy-quinoxalin-2-yl]-2-fluoro-phenyl]-N-[5-[1-(trifluoromethyl)cyclo-propyl]isoxazol-3-yl]acetamide], for which the pIC50 in experiment [1] and in experiment [2] was above 8.00 each time.
Regarding `COc1cc2nc(-c3ccc(CC(=O)Nc4cc(C5(C(F)(F)F)CC5)on4)c(F)c3)cnc2cc1OCCCNC(C)=O` [Example 237, 2-[4-[6-(3-acetamidopropoxy)-7-methoxy-quinoxalin-2-yl]-2-fluoro-phenyl]-N-[5-[1-(trifluoromethyl)cyclo-propyl]isoxazol-3-yl]acetamide], the pIC50 in experiment [1] and in experiment [2] was above 8.00 in each case.
Turning to `COc1cc2nc(-c3ccc(CC(=O)Nc4cc(C5(C(F)(F)F)CC5)on4)c(F)c3)cnc2cc1OCC(O)CO` (stereo not drawn) [Example 238, 2-[4-[6-(2,3-dihydroxypropoxy)-7-methoxy-quinoxalin-2-yl]-2-fluoro-phenyl]-N-[5-[1-(trifluoromethyl)cyclo-propyl]isoxazol-3-yl]acetamide], the pIC50 in experiment [1] and in experiment [2] was above 8.00 each time.
Consider `COc1cc2ncc(-c3ccc(CC(=O)Nc4cc(C5(C(F)(F)F)CC5)on4)c(F)c3)nc2cc1OCC(C)(C)O` [Example 239, 2-[2-fluoro-4-[7-(2-hydroxy-2-methyl-propoxy)-6-methoxy-quinoxalin-2-yl]phenyl]-N-[5-[1-(trifluoro-methyl)cyclopropyl]isoxazol-3-yl]acetamide], for which the pIC50 in experiment [1] and in experiment [2] was above 8.00 each time.
Consider `COc1cc2nc(-c3ccc(CC(=O)Nc4cc(C5(C(F)(F)F)CC5)on4)c(F)c3)cnc2cc1OCCN1CCCOCC1` [Example 240, 2-[2-fluoro-4-[7-methoxy-6-[2-(1,4-oxazepan-4-yl)ethoxy]quinoxalin-2-yl]phenyl]-N-[5-[1-(trifluoromethyl)cyclo-propyl]isoxazol-3-yl]acetamide], for which the pIC50 in experiment [1] and in experiment [2] was above 8.00 each time.
Regarding `COc1cc2nc(-c3ccc(CC(=O)Nc4cc(C5(C(F)(F)F)CC5)on4)c(F)c3)cnc2cc1OCCN1CCNCC1` [Example 241, 2-[2-fluoro-4-[7-methoxy-6-(2-piperazin-1-ylethoxy)quinoxalin-2-yl]phenyl]-N-[5-[1-(trifluoromethyl)cyclo-propyl]isoxazol-3-yl]acetamide], the pIC50 in experiment [1] and in experiment [2] was above 8.00 throughout.
On to `COc1cc2nc(-c3ccc(CC(=O)Nc4cc(C5(C(F)(F)F)CC5)on4)c(F)c3)cnc2cc1OCCN1CCO[C@H](C)C1` [Example 242, 2-[2-fluoro-4-[7-methoxy-6-[2-[(2R)-2-methylmorpholin-4-yl]ethoxy]quinoxalin-2-yl]phenyl]-N-[5-[1-(trifluoromethyl)cyclo-propyl]isoxazol-3-yl]acetamide], for which the pIC50 in experiment [1] and in experiment [2] was above 8.00 each time.
As for `COc1cc2nc(-c3ccc(CC(=O)Nc4cc(C5(C(F)(F)F)CC5)on4)c(F)c3)cnc2cc1OCCN1CCOC[C@@H]1C` [Example 243, 2-[2-fluoro-4-[7-methoxy-6-[2-[(3S)-3-methylmorpholin-4-yl]ethoxy]quinoxalin-2-yl]phenyl]-N-[5-[1-(trifluoromethyl)cyclo-propyl]isoxazol-3-yl]acetamide], the pIC50 in experiment [1] and in experiment [2] was above 8.00 throughout.
Take `COc1cc2nc(-c3ccc(CC(=O)Nc4cc(C5(C(F)(F)F)CC5)on4)c(F)c3)cnc2cc1OCCN1C2CCC1COC2` [Example 245, 2-[2-fluoro-4-[7-methoxy-6-[2-(3-oxa-8-azabicyclo[3.2.1]octan-8-yl)ethoxy]quinoxalin-2-yl]phenyl]-N-[5-[1-(trifluoromethyl)cyclo-propyl]isoxazol-3-yl]acetamide]: the pIC50 in experiment [1] and in experiment [2] was above 8.00 throughout.
On to `COc1cc2nc(-c3ccc(CC(=O)Nc4cc(C5(C(F)(F)F)CC5)on4)c(F)c3)cnc2cc1OCCN1CCOC[C@H]1C` [Example 247, 2-[2-fluoro-4-[7-methoxy-6-[2-[(3R)-3-methylmorpholin-4-yl]ethoxy]quinoxalin-2-yl]phenyl]-N-[5-[1-(trifluoromethyl)cyclo-propyl]isoxazol-3-yl]acetamide], for which the negative logarithm of the IC50 (pIC50) in experiment [1] and in experiment [2] was above 8.00 throughout.
For `COc1cc2nc(-c3ccc(CC(=O)Nc4cc(C5(C(F)(F)F)CC5)on4)c(F)c3)cnc2cc1OCCN1CCO[C@@H](C)C1` [Example 248, 2-[2-fluoro-4-[7-methoxy-6-[2-[(2S)-2-methylmorpholin-4-yl]ethoxy]quinoxalin-2-yl]phenyl]-N-[5-[1-(trifluoromethyl)cyclo-propyl]isoxazol-3-yl]acetamide], the pIC50 in experiment [1] and in experiment [2] was above 8.00 throughout.
Take `COc1cc2nc(-c3ccc(CC(=O)Nc4cc(C5(C(F)(F)F)CC5)on4)c(F)c3)cnc2cc1OCC(C)(C)O` [Example 249, 2-[2-fluoro-4-[6-(2-hydroxy-2-methyl-propoxy)-7-methoxy-quinoxalin-2-yl]phenyl]-N-[5-[1-(trifluoro-methyl)cyclopropyl]isoxazol-3-yl]acetamide]: the pIC50 in experiment [1] was above 8.00; in experiment [2] it was 7.70 to 8.00.

Broadly, the pIC50 is −log10 of the IC50, conventionally taken in molar units. A high value points to a small IC50.
